How the values were obtained:
Bcl-XL = Bcl-XL (Homo sapiens, UniProt Q07817); test: Bcl-XL FP assay (competitive fluorescence polarization binding assay, FITC-Bim BH-3 peptide tracer); conditions: read-out: Bcl-XL FP assay IC50; C-terminal 6×HIS tagged Bcl-XL (aa 1-209), 0.8 nM; 2 nM FITC-Bim peptide tracer; tested form: formic acid salt; mixture of two diaster
Bcl-2 = Bcl-2 (Homo sapiens, UniProt P10415); test: Bcl-2 FP assay (competitive fluorescence polarization binding assay, FITC-Bim BH-3 peptide tracer); conditions: read-out: Bcl-2 FP assay IC50; c-terminal 6×HIS tagged Bcl-2 (aa 1-204), 1.3 nM; 2 nM FITC-Bim peptide tracer; tested form: formic acid salt; mixture of two diaster

Amino acid sequences for entries named in this document (tags omitted). Residues count along the entry.
UniProt Q07817, 1-209 limits assumed: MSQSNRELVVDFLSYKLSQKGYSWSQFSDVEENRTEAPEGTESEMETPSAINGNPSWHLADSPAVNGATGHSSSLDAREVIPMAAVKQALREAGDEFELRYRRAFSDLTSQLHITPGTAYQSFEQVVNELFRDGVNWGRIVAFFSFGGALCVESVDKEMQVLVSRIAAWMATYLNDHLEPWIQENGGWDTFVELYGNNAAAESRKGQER
UniProt P10415, 1-204 limits assumed: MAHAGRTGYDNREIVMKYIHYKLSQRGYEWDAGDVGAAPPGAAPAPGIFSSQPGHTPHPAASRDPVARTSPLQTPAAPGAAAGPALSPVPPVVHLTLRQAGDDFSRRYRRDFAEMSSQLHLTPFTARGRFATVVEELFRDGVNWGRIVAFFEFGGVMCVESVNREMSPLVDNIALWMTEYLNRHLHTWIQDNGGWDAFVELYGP

O=C(NS(=O)(=O)c1ccc(N[C@H](CCN2CCN(CC(O)CF)CC2)CSc2ccccc2)c(S(=O)(=O)C(F)(F)F)c1)c1ccc(N2CCC([C@@H](O)c3ccccc3-c3ccc(Cl)cc3)CC2)cc1 (some centres unmarked)
IC50 (Bcl-XL): 2 nM
IC50 (Bcl-2): 1 nM
